Values of other authors in paper PMC12621185, “Design, Syntheses, and Pharmacological Evaluations of Core Ring Expanded Fentanyl Analogues as Potential Counteracting Agents Against Fentanyl Induced Respiratory Depression” (2025).

How the values were obtained:
Swiss Webster mice [1] = conditions: warm-water tail immersion, previously reported data, ref number not printed (Table 1 footnote a)
Swiss Webster mice [2] = conditions: warm-water tail immersion, previously reported data, ref number not printed (Table 1 footnote a); remark: listed apart in the source

## C=CCN1CC[C@]23c4c5ccc(O)c4O[C@H]2C(=O)CC[C@@]3(O)[C@H]1C5
Swiss Webster mice [1]
  AD50 (95% CL) against 10 mg/kg morphine: 0.05 (0.03–0.09) mg/kg
Swiss Webster mice [2]
  AD50 (95% CL) against 0.1 mg/kg fentanyl: 0.005 (0.002–0.009) mg/kg
